In patent US10231967B2, “Compounds and their use as BACE inhibitors” (ASTRAZENECA AB, priority 2010, dated 2019):

System: sAPPβ release in SH-SY5Y cells
Assay: sAPPβ release assay
Type: cell-based
Settings: Homo sapiens, 17 h, compounds incubated 17 h, MSD detection
Experimental: Thaw cells and seed at a conc. of around 10000 cells/well in DMEM/F-12 with Glutamax, 10% FCS and 1% non-essential amino acids to a 384-well tissue culture treated plate, 100 μL cell susp/well. […] The cell medium was removed, followed by addition of 30 μL compound diluted in DMEM/F-12 with Glutamax, 10% FCS, 1% non-essential amino acids and 1% PeSt to a final conc. of 1% DMSO. The compounds were incubated with the cells for 17 h (overnight) at 37° C., 5% CO2. Meso Scale Discovery (MSD) plates were used for the detection of sAPPβ release. MSD sAPPβ plates were blocked in 1% BSA in Tris wash buffer (40 μL/well) for 1 h on shake at r.t. and washed 1 time in Tris wash buffer (40 μL/well). 20 μL of medium was transferred to the pre-blocked and washed MSD sAPPβ microplates, and the cell plates were further used in an ATP assay to measure cytotoxicity. The MSD plates were incubated with shaking at r.t. for 2 h and the media discarded. 10 μL detection antibody was added (1 nM) per well followed by incubation with shaking at r.t. for 2 h and then discarded. 40 μL Read Buffer was added per well and the plates were read in a SECTOR Imager.

**Q.** Which IC50 does the source give for `CC#Cc1cncc(-c2ccc3c(c2)[C@@]2(N=C(C)C(N)=N2)[C@]2(CC[C@H](OC)CC2)C3)c1` (single isomer, unassigned) [Example 20a Isomer 1] here?
**A.** The IC50 was 0.1 nM.
